Among the data in PubChem BioAssay AID504897 (Southern Research Specialized Biocontainment Screening …, 2011) are IC90 and IC50 values, retold here.

Molecules are shown by their SMILES. A value given as a limit tells only on which side of the number the result lay.

By IC90 is commonly meant the concentration at which the effect reaches the 90% level. By IC50 is commonly meant the concentration that inhibits the measured activity by half. A low value points to greater potency.

The assay concerns Mycobacterium tuberculosis H37Rv growth inhibition, 7H9 medium. Kind of assay: M. tuberculosis growth inhibition, dose response, H37Rv, 7H9 media, purified and synthesized compounds, set 6 (AID 504897).

For the compound `CO[C@H]1/C=C/O[C@@]2(C)Oc3c(C)c(O)c4c(O)c(c(C=NN5CCN(C)CC5)c(O)c4c3C2=O)NC(=O)/C(C)=C\C=C\[C@H](C)[C@H](O)[C@@H](C)[C@@H](O)[C@@H](C)[C@H](OC(C)=O)[C@@H]1C`, the IC90 was 15 nM. Moreover, under “measured here: IC50 of Mtb growth inhibition”, the IC50 was less than 6 nM.
